Measurements published in publication PMC5845004, “Novel (p)ppGpp Binding and Metabolizing Proteins of Escherichia coli” (mBio, 2018).

Amino acid sequences for entries named in this document (tags omitted). A change or cut given only in a name is not applied to a line headed by its entry.
UniProt P0A9M5: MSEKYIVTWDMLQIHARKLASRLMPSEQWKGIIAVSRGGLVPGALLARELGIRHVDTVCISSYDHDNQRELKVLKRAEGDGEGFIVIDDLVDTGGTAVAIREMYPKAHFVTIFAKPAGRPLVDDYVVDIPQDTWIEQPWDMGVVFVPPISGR

Target: Gpt (Escherichia coli, UniProt P0A9M5)
Assay: DRaCALA competition assay, Gpt
Format: binding, E. coli
Settings: 20 µM Gpt, 2 nM hot ppGpp, 100 µM cold competitor

O=P(O)(O)OC[C@H]1OC(OP(=O)(O)OP(=O)(O)O)[C@H](O)[C@@H]1O (stereo partly shown) [PRPP, phosphoribosyl pyrophosphate]
competition for bound [α-32P]ppGpp on Gpt: partially outcompete
